Measured values: BindingDB's records for doi:10.1021/jm8012344 (Washington University, 2009)

Sequences of proteins named here, by UniProt entry; tags and fusion partners are left off.
UniProt Q60492, whole entry: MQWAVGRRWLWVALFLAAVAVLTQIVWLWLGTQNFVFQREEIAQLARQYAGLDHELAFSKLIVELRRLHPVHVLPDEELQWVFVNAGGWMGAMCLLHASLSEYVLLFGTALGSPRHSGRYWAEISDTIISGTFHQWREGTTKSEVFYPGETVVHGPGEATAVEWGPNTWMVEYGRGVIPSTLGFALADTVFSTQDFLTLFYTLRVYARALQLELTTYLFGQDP

Target: Sigma non-opioid intracellular receptor 1 (Cavia porcellus, UniProt Q60492)
Assay: Displacement of [3H](+)-pentazocine from sigma1 receptor in guinea pig brain membrane by liquid scintillation counting

With `O=C(c1ccc(F)cc1)C1CCN([C@@H]2Cc3ccccc3C[C@H]2O)CC1` [(+/-)-trans-2-Hydroxy-3-(4-(4-fluorobenzoyl)piperidino)tetralin] the Ki was 186 nM.
